Several values for one entry are separate records, joined by “and”; a condition that tells them apart may be missing. Equal entries are not always repeated.

Chains of the proteins cited; added tags and fusions are not shown. Residues count along the entry.
UniProt P24046, 22-479: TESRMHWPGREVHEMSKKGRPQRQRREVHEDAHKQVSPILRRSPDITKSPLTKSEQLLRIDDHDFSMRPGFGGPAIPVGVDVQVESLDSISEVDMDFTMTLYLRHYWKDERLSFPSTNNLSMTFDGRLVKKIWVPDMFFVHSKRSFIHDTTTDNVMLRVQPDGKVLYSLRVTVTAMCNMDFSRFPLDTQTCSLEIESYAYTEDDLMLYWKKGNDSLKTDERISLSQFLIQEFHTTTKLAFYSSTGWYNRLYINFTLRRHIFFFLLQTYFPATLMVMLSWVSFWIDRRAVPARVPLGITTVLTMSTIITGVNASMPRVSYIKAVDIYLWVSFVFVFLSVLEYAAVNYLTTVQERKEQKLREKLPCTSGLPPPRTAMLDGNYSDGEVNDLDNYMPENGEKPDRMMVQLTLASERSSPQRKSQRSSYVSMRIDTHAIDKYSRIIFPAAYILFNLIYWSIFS

The test addresses human r1 receptors (GABAC receptors) (Homo sapiens, UniProt P24046). In words: Two-electrode voltage clamp recording of human r1 GABAC receptors expressed in Xenopus oocytes.

As for `CCCCP(=O)(O)CCCN` [CGP36742, (3-aminopropyl)-n-butylphosphinic acid], the “nH (Hill Coefficient)” value is 3.0 ± 0.4. Moreover, under “100 μM, FIG. 1”, the “Activation of the receptor by compound alone” value is reported as “do not activate the receptor” and the “Effect on GABA response when co-applied with GABA (1 μM)” value is “the GABA response is blocked or reduced”. Further, the IC50 (IC50 (concentration that inhibits 50% of the response produced by 1 μM GABA), 1 μM GABA) is 62 µM and 62.5 µM.

The values are drawn from patent US6632806B1, “Neurologically-active compounds” (The University of Sydney, priority 1997, dated 2003).
